We go through 2 molecules from patent publication US4880938A, “Amino acid analogs” (priority 1986, dated 1989).

The chains behind the UniProt entries cited, without tags or fusion partners.
UniProt P30551, whole entry: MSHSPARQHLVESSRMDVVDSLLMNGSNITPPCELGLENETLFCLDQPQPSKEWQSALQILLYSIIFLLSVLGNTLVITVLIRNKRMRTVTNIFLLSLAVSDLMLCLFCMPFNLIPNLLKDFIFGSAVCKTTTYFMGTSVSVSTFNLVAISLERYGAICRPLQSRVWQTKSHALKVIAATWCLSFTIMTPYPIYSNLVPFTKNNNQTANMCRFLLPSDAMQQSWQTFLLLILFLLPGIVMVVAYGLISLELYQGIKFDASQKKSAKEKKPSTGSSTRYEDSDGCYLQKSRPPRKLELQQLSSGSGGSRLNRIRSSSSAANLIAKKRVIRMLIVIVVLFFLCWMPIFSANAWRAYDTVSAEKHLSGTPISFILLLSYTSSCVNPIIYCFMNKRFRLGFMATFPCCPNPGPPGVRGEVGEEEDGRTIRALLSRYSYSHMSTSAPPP

Broadly, the pIC50 is the IC50 on a negative log10 scale, so that one unit is a factor of ten.

In this assay the target is T1, CCK receptor (pancreas) (Rattus norvegicus, UniProt P30551).
T1 construct: The whole pancreas of a male Sprague-Dawley rat (200-350 g); from tissue; host or cells: whole pancreas of male Sprague-Dawley rat, membrane homogenate
Put plainly: 125I-CCK-33 receptor binding (pancreas) method. Details: species or system rat (male Sprague-Dawley). The conditions noted are these: 125I-CCK-33, rat pancreas membranes, 37° C., 30 minutes. An excerpt: Screening of the novel compounds according to the present invention to determine biological activity and obtain an IC50 value for them, in order to identify significant CCK-antagonism, may be accomplished using an ^125 I-CCK receptor binding assay and in vitro isolated tissue preparations. […] These tests involve the following:
CCK receptor binding (pancreas) method
CCK-33 was radiolabeled with ^125 I-Bolton Hunter reagent (2000 Ci/mmole), as described by Sankara et al. (J. Biol. Chem., 254, 9349-9351, 1979).
The whole pancreas of a male Sprague-Dawley rat (200-350 g), which had been sacrificed by decapitation, was dissected free of fat tissue and homogenized in 20 volumes of ice-cold 50 mM Tris HCl (pH 7.7 at 25° C.) with a Brinkmann Polytron PT-10. The homogenates were centrifuged at 48,000 g for 10 minutes, then the resulting pellets were resuspended in Tris Buffer, centrifuged as above, and resuspended in 200 volumes of binding assay buffer (50 mM Tris HCl, pH 7.7 at 25° C., 5 mM dithiothreitol, 0.1 mM bacitracin, 1.2 mM phenylmethane sulfonyl fluoride and 0.5 mM o-phenanthroline).
The supernatant was aspirated and discarded, and the pellets were counted with a Beckman Gamma 5000.

pIC50: −log10 of the molar value.

`CCCN(CCC)C(=O)[C@H](CCC(=O)O)NC(=O)c1cc2ccccc2[nH]1` [Compound 3, (S)-5-(dipropylamino)-4-[(1H-indol-2-yl-carbonyl)amino]-5-oxo-pentanoic acid]: the negative-log IC50 (pIC50) was 5.43.

`CCCN(CCC)C(=O)[C@@H](CCC(=O)O)NC(=O)c1cc2ccccc2[nH]1` [Compound 4]: the negative logarithm of the IC50 (pIC50) was 5.96.
